Results published in patent publication US20030114529A1, “Hydroxamic acid thrombospondin peptide analog that inhibits aggrecanase activity” (priority 2001, published 2003).

Amino acid sequences for entries named in this document (tags omitted). Residues count along the entry.
UniProt P08254, 100-477 limits assumed: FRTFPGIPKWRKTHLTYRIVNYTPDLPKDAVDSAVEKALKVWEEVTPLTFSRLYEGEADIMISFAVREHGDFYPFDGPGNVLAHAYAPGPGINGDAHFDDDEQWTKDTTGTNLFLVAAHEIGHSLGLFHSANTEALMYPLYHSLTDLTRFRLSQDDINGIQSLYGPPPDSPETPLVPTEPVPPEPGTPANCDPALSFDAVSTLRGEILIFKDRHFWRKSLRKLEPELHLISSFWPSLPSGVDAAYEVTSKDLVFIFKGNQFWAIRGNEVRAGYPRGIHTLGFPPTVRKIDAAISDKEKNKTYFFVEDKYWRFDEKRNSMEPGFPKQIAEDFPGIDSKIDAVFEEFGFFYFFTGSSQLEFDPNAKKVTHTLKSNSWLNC

Legend:
stromelysin MMP-3 = stromelysin MMP-3 (Homo sapiens, UniProt P08254); experiment: Inhibition of stromelysin MMP-3 by hydroxamic acids; type: biochemical; settings: read-out: Apparent Ki stromelysin MMP-3
[1] = tested on: Pig articular cartilage explants; experiment: IL-1 induced aggrecan degradation in pig articular cartilage explants (GAG release, DMMB assay); settings: read-out: Articular Cartilage (IC50, GAG release), IL-1α, 72 hours, inhibitor 0.1 to 10 μM
[2] = tested on: ADAMTS-4/ADAMTS-5 (aggrecanase); experiment: Inhibition of aggrecan cleavage at Glu1480-Gly1481 by recombinant ADAMTS-4/ADAMTS-5 (Western blot, densitometry); settings: read-out: Apparent Ki aggrecanase ADAM-TS4/5

| Ki (stromelysin MMP-3) | SMILES | IC50 [1] | Ki ([2]; aggrecan 500 nM, enzyme 5 nM, 2 hours, 37° C., Ki = IC50/(1 + [S]/Km)) | Ki [2] |
| --- | --- | --- | --- | --- |
| 12 nM | CNC(=O)C1CCCNN1C(=O)C(CC(C)C)C(C)C(=O)NO (stereo not drawn) | > 10000 nM | > 10000 nM | – |
| 73 nM | CNC(=O)[C@H](CC(C)C)NC(=O)[C@@H](CC(=O)NO)CC(C)C | 1890 nM | – | 38 nM |

Like-named read-outs stand apart in the source and are kept apart here.
